# Earlier results in patent US20260327317A1, “PROTEASE-CLEAVABLE MOIETIES AND METHODS OF USE THEREOF” (CytomX Therapeutics, Inc., priority 2022, published 2026).
# Test system: H292 (human lung cancer cell line) xenograft tumors
# Conditions: stated as background without reference; cited from earlier work
substance,measurement,value
"cetuximab: anti-EGFR antibody cetuximab, which lacks a prodomain","responsiveness of H292 cell line, in words",responsive to the anti-EGFR antibody cetuximab
